## scFv variants of Ab-14 (heavy chain) against a SARS-CoV-2 spike peptide

All variants were tested on one target, the spike HR2 peptide PDVDLGDISGINAS (SARS-CoV-2).

Ab-14 is the parent antibody, in scFv form: VH, then a (GGGGS)3 linker, then VL. The light chain is unchanged in all variants.
VH: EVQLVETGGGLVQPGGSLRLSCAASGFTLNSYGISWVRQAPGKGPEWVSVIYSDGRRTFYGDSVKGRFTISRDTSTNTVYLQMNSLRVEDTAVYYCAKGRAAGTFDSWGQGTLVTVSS
VL: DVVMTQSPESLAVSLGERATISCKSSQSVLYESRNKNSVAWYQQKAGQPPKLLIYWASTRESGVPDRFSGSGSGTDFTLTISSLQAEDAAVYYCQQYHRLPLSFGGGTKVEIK

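The parent was found by panning a naive human phage display library on the peptide. In library AAYL49, one, two or three CDR residues were substituted; doubles and triples were drawn at random. In AlphaSeq, yeast of one mating type display the scFv and yeast of the other type display the target. The frequency of each diploid, read from paired DNA barcodes, reflects how well the two displayed proteins bind. A regression on co-assayed BCL2-family reference pairs converts the normalised counts of each replicate to an apparent Kd. Each pool was mated in three replicate cultures.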

Variants are written as CDR1, CDR2 and CDR3 of the heavy chain (limits as in the source). Parent: GFTLNSYGIS, VIYSDGRRTFYGDSVK, GRAAGTFDS. Affinities are written as log10 Kd with Kd in nM; a lower number is a better binder. "ND" marks a missing value. The strain was present, yet no cells mated with the target were sequenced in that replicate, which points to weak or no binding. As a blank, each scFv also met three strains without target: over library AAYL49, 15% of these pairings were detected, typically at 4.06 and seldom below 2.83. Also given: how often the same scFv was detected with the empty control strains, with their mean in brackets.

{"CDR-H1": "GFTLNQYGIS", "CDR-H2": "VIYSDGRRTFYSDPVK", "CDR-H3": "GRAAGTFDS", "log10 Kd, replicates": "ND 4.17 ND", "empty controls": "0 of 9"}
{"CDR-H1": "DFTLNSYGIS", "CDR-H2": "VIYSDGRHTFYGDSVK", "CDR-H3": "GRAAGTFDG", "log10 Kd, replicates": "1.87 1.87 2.47", "empty controls": "1 of 9 (2.88)"}
{"CDR-H1": "GFTLNSYGIS", "CDR-H2": "VIYSDGRRTFYGDSLK", "CDR-H3": "TRAAWTFDS", "log10 Kd, replicates": "ND ND ND", "empty controls": "0 of 9"}
{"CDR-H1": "GFTLNDYGIS", "CDR-H2": "VIYSDGRQLFYGDSVK", "CDR-H3": "GRAAGTFDS", "log10 Kd, replicates": "2.46 2.33 2.85", "empty controls": "2 of 9 (3.87)"}
{"CDR-H1": "GFTLNSYGIS", "CDR-H2": "VGYSDGRRTFYGDSVK", "CDR-H3": "GRAAGTFDL", "log10 Kd, replicates": "ND ND ND", "empty controls": "2 of 9 (3.81)"}
{"CDR-H1": "GHTLNSYGYS", "CDR-H2": "NIYSDGRRTFYGDSVK", "CDR-H3": "GRAAGTFDS", "log10 Kd, replicates": "4.62 ND ND", "empty controls": "2 of 9 (3.86)"}
{"CDR-H1": "GFTLNSYGIS", "CDR-H2": "VIYSEGRRTFYGDSLK", "CDR-H3": "GRAAGTFDS", "log10 Kd, replicates": "ND 3.66 ND", "empty controls": "0 of 9"}
{"CDR-H1": "GFTLNSYIIS", "CDR-H2": "VIYSDGRRTFYGDIVK", "CDR-H3": "GRKAGTFDS", "log10 Kd, replicates": "ND ND ND", "empty controls": "1 of 9 (3.65)"}
{"CDR-H1": "GFTLNSYAIS", "CDR-H2": "VIYSDGRQTFYNDSVK", "CDR-H3": "GRAAGTFDS", "log10 Kd, replicates": "ND ND ND", "empty controls": "1 of 9 (3.02)"}
{"CDR-H1": "GFTLNSYGIS", "CDR-H2": "VIYSDGRDTFYGDSVK", "CDR-H3": "GRAAGYLDS", "log10 Kd, replicates": "ND ND ND", "empty controls": "2 of 9 (3.73)"}
{"CDR-H1": "GFTLNSYGIS", "CDR-H2": "VIYVDGRRQFAGDSVK", "CDR-H3": "GRAAGTFDS", "log10 Kd, replicates": "ND ND 2.37", "empty controls": "1 of 9 (3.95)"}
{"CDR-H1": "GFTLNSYGIS", "CDR-H2": "VIYSWGRRTAYGDSVK", "CDR-H3": "GRAAGTFDD", "log10 Kd, replicates": "ND ND ND", "empty controls": "1 of 9 (4.33)"}
{"CDR-H1": "GFTLNSYGIS", "CDR-H2": "VIYSDGPRTFYHDSVK", "CDR-H3": "GRAAGVFDS", "log10 Kd, replicates": "ND ND 3.48", "empty controls": "0 of 9"}
{"CDR-H1": "GFTLNSYGRS", "CDR-H2": "VIYSDGRRTFKGDSVK", "CDR-H3": "GRAAGTFDV", "log10 Kd, replicates": "ND ND ND", "empty controls": "0 of 9"}
{"CDR-H1": "GFFLNSYGDS", "CDR-H2": "VIYSDGRRAFYGDSVK", "CDR-H3": "GRAAGTFDS", "log10 Kd, replicates": "ND ND ND", "empty controls": "0 of 9"}
{"CDR-H1": "GFTLSSYGIS", "CDR-H2": "VIYSDGRRTFYGNSVK", "CDR-H3": "GRHAGTFDS", "log10 Kd, replicates": "1.08 1.72 1.21", "empty controls": "0 of 9"}
{"CDR-H1": "GFTLNSYGIS", "CDR-H2": "MIYSDGFRTIYGDSVK", "CDR-H3": "GRAAGTFDS", "log10 Kd, replicates": "5.17 ND 4.20", "empty controls": "4 of 9 (4.46)"}
{"CDR-H1": "GFTLNSYGES", "CDR-H2": "VIYSCGRRTFYGDSVK", "CDR-H3": "GRAAGTFDY", "log10 Kd, replicates": "ND ND 4.10", "empty controls": "1 of 9 (4.62)"}
{"CDR-H1": "GFTLNSYGIS", "CDR-H2": "VIYSDIRRTFYGDSVK", "CDR-H3": "GFAAGTFDM", "log10 Kd, replicates": "ND ND ND", "empty controls": "0 of 9"}
{"CDR-H1": "GFTLNSYGIS", "CDR-H2": "VIYSDGRRTFYGDSNV", "CDR-H3": "GRAAGTRDS", "log10 Kd, replicates": "ND ND ND", "empty controls": "0 of 9"}
{"CDR-H1": "GFTINSYGIS", "CDR-H2": "VIYSDGRRTFYGDSVK", "CDR-H3": "GRAAGTFDS", "log10 Kd, replicates": "1.24 1.13 1.05", "empty controls": "0 of 9"}
{"CDR-H1": "GFTLTSYGIS", "CDR-H2": "VIASDGRRTFYGDSVK", "CDR-H3": "GKAAGTFDS", "log10 Kd, replicates": "3.63 3.74 ND", "empty controls": "4 of 9 (3.21)"}
{"CDR-H1": "GFTPNSYIIS", "CDR-H2": "VIYSDCRRTFYGDSVK", "CDR-H3": "GRAAGTFDS", "log10 Kd, replicates": "ND ND ND", "empty controls": "1 of 9 (3.18)"}

Repeated from above, the 2 best binders with a signal in all replicates:

| CDR-H1 | CDR-H2 | CDR-H3 | log10 Kd, replicates | empty controls |
|---|---|---|---|---|
| GFTINSYGIS | VIYSDGRRTFYGDSVK | GRAAGTFDS | 1.24 1.13 1.05 | 0 of 9 |
| GFTLSSYGIS | VIYSDGRRTFYGNSVK | GRHAGTFDS | 1.08 1.72 1.21 | 0 of 9 |

Values reported by Engelhart et al. 2022, doi:10.1038/s41597-022-01779-4 (FLAb copy).